For this test, the system named is human colon carcinoma cells HCT-116/VM46. Kind of test: In vitro cytotoxicity (XTT assay), 72 h, HCT-116/VM46 multi-drug resistant cells. Format: cell-based. As to conditions: for fold resistance relative to HCT116 cells: HCT-116/VM46 vs HCT-116, value in parentheses, 4320 min; for IC50: read-out: IC50, drug concentration required to inhibit cell proliferation to 50% of untreated control, HCT-116/VM46 (teniposide-selected, multi-drug resistant), XTT, 72 h. On the technique in general: Tetrazolium dyes change colour on reduction, which living cells bring about.

`CC(=O)O[C@@]12CO[C@@H]1CC[C@@]1(C)C(=O)CC3=C(C)[C@@H](OC(=O)[C@H](O)[C@@H](NC(=O)OC(C)(C)C)c4ccccc4)C[C@@](O)([C@@H](OC(=O)c4ccccc4)[C@H]21)C3(C)C` [Ic, N-Debenzoyl-N-t-butoxycarbonyl-7-deoxy-10-deoxy-10-desacetyloxytaxol]: the “fold resistance relative to HCT116 cells” value was found to be 5.6 fold and the IC50 turned out to be 0.067 µM.

With `CC(=O)O[C@@]12CO[C@@H]1CC[C@@]1(C)C(=O)CC3=C(C)[C@@H](OC(=O)[C@H](O)[C@@H](NC(=O)c4ccccc4)c4ccccc4)C[C@@](O)([C@@H](OC(=O)c4ccccc4)[C@H]21)C3(C)C` [Id, 7-Deoxy-10-desacetyloxytaxol], the “fold resistance relative to HCT116 cells” value was 11 fold and the IC50 was 0.313 µM.

For the origin of these results see patent US5478854A, “Deoxy taxols” (Bristol-Myers Squibb Company, priority 1994, dated 1995).
